How the values were obtained:
Assay in all cases: radiometric filter-binding kinase assay, Kinase HotSpot
Details in all cases: compound 0.5 µM; ATP 10 µM
LRRK2 (human) = LRRK2 (human) (UniProt Q5S007)
EPHA5 (human) = EPHA5 (human) (UniProt P54756)
MAP3K3 (human) = MAP3K3 (human) (UniProt Q99759)
ULK2 (human) = ULK2 (human) (UniProt Q8IYT8)
NLK (human) = NLK (human) (UniProt Q9UBE8)
NEK4 (human) = NEK4 (human) (UniProt P51957)
GRK5 (human) = GRK5 (human) (UniProt P34947)
TAOK2 (human) = TAOK2 (human) (UniProt Q9UL54)
PHKG1 (human) = PHKG1 (human) (UniProt Q16816)
LCK (human) = LCK (human) (UniProt P06239)
PAK4 (human) = PAK4 (human) (UniProt O96013)
RPS6KB2 (human) = RPS6KB2 (human) (UniProt Q9UBS0)
FGFR2 (human) = FGFR2 (human) (UniProt P21802)
WNK3 (human) = WNK3 (human) (UniProt Q9BYP7)
SRPK3 (human) = SRPK3 (human) (UniProt Q9UPE1)
CAMK4 (human) = CAMK4 (human) (UniProt Q16566)
ALK (human) = ALK (human) (UniProt Q9UM73)
EPHA1 (human) = EPHA1 (human) (UniProt P21709)
NTRK1 (human) = NTRK1 (human) (UniProt P04629)
FGFR1 (human) = FGFR1 (human) (UniProt P11362)
DAPK3 (human) = DAPK3 (human) (UniProt O43293)
CAMK2G (human) = CAMK2G (human) (UniProt Q13555)
PIM3 (human) = PIM3 (human) (UniProt Q86V86)
MAP4K2 (human) = MAP4K2 (human) (UniProt Q12851)
[1] = target: TYK2 JH1 catalytic (human) (UniProt P29597)
ERBB2 (human) = ERBB2 (human) (UniProt P04626)
DAPK1 (human) = DAPK1 (human) (UniProt P53355)
VRK1 (human) = VRK1 (human) (UniProt Q99986)
MAPKAPK3 (human) = MAPKAPK3 (human) (UniProt Q16644)
CLK2 (human) = CLK2 (human) (UniProt P49760)
[2] = system: ARAF (human), P10398 [Y301D/Y302D]
HIPK3 (human) = HIPK3 (human) (UniProt Q9H422)
CLK3 (human) = CLK3 (human) (UniProt P49761)
PDPK1 (human) = PDPK1 (human) (UniProt O15530)
CSNK2A1 (human) = CSNK2A1 (human) (UniProt P68400)
PRKCE (human) = PRKCE (human) (UniProt Q02156)
CAMK1D (human) = CAMK1D (human) (UniProt Q8IU85)
MERTK (human) = MERTK (human) (UniProt Q12866)
GSK3A (human) = GSK3A (human) (UniProt P49840)
SRPK2 (human) = SRPK2 (human) (UniProt P78362)
PASK (human) = PASK (human) (UniProt Q96RG2)
STK3 (human) = STK3 (human) (UniProt Q13188)

Amino acid sequences for entries named in this document (tags omitted). A change or cut given only in a name is not applied to a line headed by its entry.
UniProt P54756, whole entry, looked up: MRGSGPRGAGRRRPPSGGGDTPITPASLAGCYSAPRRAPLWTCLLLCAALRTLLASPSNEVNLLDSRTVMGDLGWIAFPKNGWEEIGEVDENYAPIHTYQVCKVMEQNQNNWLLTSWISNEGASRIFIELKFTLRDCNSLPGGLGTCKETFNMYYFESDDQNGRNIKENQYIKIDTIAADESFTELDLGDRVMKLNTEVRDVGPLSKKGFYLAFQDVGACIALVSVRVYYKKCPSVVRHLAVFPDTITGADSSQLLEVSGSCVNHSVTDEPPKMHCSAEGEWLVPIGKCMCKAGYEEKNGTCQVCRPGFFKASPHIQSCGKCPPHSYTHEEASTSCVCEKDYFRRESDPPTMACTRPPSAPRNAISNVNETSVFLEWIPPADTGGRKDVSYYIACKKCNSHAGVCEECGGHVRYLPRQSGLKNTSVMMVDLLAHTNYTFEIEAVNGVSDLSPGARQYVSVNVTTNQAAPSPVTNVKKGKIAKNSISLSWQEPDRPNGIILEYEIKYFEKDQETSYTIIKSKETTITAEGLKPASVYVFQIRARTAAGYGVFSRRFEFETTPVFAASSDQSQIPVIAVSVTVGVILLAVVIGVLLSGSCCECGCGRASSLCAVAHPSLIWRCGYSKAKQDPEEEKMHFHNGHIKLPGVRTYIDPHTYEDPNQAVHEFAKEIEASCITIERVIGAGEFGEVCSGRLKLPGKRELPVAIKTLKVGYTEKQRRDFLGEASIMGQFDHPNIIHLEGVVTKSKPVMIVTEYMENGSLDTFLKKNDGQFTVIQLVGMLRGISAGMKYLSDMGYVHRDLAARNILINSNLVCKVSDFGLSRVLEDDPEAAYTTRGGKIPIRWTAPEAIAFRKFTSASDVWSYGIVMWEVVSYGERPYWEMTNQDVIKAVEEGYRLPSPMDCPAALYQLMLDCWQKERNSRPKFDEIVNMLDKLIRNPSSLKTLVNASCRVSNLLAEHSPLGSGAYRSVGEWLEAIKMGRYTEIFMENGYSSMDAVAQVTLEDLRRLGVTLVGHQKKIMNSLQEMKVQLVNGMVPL
UniProt Q99759: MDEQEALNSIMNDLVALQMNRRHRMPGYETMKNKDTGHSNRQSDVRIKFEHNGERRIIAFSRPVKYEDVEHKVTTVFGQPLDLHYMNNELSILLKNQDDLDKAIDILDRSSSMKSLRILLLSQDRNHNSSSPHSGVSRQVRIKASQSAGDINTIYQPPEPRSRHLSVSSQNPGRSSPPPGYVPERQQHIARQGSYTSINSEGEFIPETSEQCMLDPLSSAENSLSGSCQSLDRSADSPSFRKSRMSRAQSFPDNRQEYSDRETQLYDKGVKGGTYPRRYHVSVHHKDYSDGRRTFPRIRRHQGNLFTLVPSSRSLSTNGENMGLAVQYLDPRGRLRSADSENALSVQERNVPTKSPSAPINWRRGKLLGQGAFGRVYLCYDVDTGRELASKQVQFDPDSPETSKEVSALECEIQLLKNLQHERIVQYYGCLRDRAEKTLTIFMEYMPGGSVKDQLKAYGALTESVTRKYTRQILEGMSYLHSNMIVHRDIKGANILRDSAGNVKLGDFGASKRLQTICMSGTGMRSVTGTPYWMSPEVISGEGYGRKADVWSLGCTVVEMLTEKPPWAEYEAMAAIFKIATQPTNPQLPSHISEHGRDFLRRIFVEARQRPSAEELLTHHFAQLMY
UniProt P51957: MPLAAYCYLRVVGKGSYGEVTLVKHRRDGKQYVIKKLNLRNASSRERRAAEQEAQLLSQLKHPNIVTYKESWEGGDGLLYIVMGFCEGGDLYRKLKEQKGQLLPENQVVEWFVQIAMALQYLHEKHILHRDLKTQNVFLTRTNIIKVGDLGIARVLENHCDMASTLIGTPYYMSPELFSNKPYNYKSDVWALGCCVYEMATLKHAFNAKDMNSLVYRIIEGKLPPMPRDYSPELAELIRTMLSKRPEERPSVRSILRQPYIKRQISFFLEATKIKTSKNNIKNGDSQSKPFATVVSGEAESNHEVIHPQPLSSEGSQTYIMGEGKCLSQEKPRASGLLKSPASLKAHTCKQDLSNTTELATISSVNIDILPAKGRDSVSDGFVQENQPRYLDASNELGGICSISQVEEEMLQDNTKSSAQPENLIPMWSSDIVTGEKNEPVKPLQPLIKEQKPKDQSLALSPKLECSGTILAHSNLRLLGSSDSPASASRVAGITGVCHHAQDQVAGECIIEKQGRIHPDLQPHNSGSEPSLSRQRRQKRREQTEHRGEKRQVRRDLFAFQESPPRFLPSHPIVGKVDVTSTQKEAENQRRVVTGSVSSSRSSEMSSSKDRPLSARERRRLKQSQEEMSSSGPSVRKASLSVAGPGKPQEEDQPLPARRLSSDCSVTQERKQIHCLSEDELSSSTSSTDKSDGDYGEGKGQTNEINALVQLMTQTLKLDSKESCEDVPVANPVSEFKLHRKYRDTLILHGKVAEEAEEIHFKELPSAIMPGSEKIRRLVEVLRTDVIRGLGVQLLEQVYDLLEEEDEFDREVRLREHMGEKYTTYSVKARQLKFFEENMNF
UniProt P21802, whole entry, looked up: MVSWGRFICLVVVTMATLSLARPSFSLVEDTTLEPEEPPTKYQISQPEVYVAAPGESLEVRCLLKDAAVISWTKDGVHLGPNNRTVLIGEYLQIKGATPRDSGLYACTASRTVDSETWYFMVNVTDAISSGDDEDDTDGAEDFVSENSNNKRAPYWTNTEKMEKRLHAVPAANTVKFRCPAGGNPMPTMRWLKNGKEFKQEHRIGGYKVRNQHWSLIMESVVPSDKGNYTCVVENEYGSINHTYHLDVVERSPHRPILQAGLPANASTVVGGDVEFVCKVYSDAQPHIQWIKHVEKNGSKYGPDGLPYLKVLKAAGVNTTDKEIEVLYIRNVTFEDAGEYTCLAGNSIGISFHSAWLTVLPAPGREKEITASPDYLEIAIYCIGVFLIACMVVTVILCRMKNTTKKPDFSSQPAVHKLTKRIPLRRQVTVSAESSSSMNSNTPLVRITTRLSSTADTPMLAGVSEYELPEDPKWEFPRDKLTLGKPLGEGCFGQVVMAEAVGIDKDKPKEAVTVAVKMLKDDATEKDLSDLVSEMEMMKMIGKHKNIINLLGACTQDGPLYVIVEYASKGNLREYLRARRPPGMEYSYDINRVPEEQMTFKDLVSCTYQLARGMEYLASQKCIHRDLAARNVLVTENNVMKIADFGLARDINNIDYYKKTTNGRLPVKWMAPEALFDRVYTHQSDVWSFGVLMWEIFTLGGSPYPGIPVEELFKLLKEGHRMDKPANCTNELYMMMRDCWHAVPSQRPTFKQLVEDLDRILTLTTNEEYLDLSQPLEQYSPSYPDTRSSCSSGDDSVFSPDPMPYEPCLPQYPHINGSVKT
UniProt Q16566: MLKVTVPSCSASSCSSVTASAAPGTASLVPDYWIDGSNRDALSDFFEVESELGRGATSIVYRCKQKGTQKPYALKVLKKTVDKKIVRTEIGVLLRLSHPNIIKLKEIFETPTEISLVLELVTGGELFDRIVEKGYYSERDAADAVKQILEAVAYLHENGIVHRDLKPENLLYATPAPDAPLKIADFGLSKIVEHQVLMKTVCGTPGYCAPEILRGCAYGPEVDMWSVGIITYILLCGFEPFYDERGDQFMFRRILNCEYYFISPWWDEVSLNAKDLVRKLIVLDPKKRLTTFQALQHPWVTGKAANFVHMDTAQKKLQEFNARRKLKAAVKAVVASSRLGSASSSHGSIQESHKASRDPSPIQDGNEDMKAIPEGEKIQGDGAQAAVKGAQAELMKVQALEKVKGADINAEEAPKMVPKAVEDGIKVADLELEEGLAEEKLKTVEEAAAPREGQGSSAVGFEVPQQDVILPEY
UniProt P29597: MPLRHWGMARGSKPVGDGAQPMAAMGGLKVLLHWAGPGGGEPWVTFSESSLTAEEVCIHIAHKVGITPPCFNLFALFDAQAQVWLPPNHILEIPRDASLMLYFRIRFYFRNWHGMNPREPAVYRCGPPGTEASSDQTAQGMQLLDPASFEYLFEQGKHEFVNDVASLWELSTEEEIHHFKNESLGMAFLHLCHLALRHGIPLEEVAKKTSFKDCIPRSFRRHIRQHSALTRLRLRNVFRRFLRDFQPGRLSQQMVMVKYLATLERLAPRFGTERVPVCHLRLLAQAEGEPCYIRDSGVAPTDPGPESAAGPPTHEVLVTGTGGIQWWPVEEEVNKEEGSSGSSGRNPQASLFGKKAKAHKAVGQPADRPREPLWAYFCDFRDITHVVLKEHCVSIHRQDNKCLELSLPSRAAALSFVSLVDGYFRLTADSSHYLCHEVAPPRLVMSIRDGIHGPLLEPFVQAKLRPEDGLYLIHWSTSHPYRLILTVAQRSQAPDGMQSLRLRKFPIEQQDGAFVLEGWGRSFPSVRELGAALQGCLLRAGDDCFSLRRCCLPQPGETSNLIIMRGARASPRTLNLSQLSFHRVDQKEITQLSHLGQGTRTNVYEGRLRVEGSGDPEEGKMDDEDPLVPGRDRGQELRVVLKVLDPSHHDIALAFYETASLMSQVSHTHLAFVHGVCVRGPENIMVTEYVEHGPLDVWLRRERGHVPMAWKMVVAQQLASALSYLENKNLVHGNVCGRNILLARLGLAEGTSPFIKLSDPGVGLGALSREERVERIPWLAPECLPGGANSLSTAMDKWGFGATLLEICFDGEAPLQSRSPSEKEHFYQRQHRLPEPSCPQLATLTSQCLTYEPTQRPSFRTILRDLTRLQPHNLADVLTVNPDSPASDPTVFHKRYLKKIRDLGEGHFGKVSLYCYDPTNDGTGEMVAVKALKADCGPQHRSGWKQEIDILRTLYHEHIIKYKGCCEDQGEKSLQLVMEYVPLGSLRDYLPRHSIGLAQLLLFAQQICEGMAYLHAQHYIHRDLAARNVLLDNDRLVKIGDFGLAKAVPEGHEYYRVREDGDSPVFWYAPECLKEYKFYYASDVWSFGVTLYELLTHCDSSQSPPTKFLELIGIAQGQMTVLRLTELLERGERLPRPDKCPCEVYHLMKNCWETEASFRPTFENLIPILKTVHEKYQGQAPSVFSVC
UniProt Q96RG2: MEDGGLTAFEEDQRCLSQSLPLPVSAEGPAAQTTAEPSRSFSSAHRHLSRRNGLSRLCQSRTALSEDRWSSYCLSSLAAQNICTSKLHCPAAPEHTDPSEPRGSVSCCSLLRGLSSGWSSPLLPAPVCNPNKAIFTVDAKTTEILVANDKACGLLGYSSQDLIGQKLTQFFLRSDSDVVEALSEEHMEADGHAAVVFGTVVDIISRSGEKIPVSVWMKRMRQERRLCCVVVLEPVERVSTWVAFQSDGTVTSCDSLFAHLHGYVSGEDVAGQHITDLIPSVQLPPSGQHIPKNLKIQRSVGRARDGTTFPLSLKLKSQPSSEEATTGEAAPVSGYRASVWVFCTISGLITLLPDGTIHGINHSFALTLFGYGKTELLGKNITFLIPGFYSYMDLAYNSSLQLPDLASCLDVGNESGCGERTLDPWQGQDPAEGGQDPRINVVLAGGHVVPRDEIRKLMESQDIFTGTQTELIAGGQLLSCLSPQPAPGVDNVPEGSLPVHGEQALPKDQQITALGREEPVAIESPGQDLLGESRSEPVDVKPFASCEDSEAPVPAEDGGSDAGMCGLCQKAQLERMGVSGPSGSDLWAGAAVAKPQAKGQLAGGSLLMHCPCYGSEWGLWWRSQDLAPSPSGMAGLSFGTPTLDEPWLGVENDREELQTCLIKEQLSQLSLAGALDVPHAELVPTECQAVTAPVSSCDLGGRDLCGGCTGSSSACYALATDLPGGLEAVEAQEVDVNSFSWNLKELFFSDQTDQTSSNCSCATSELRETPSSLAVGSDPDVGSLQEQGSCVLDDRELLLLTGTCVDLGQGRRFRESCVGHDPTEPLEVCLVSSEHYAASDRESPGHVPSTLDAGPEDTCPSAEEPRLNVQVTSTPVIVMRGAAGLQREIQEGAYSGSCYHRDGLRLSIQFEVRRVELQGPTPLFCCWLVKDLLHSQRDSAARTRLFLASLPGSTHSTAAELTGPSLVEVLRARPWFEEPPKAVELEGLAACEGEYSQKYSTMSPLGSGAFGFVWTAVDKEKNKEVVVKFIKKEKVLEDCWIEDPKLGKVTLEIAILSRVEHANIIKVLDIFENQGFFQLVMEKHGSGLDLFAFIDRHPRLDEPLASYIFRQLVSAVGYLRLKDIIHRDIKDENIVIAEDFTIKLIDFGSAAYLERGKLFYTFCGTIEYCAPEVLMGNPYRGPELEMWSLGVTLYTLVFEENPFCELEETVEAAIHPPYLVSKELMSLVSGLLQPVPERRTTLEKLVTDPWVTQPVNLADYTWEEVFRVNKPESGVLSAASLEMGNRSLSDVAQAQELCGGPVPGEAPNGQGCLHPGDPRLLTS

SMILES: O=C1Nc2ccc3ncsc3c2/C1=C/c1c[nH]cn1
- residual activity (LRRK2 (human)): 8.5%
- residual activity (EPHA5 (human)): 92.3%
- residual activity (MAP3K3 (human)): 82.5%
- residual activity (ULK2 (human)): 51.5%
- residual activity (NLK (human)): 35.5%
- residual activity (NEK4 (human)): 39.5%
- residual activity (GRK5 (human)): 81.3%
- residual activity (TAOK2 (human)): 56.9%
- residual activity (PHKG1 (human)): 37.2%
- residual activity (LCK (human)): 84.8%
- residual activity (PAK4 (human)): 76.5%
- residual activity (RPS6KB2 (human)): 95.1%
- residual activity (FGFR2 (human)): 37.6%
- residual activity (WNK3 (human)): 84.9%
- residual activity (SRPK3 (human)): 90.2%
- residual activity (CAMK4 (human)): 101%
- residual activity (ALK (human)): 72.4%
- residual activity (EPHA1 (human)): 83.9%
- residual activity (NTRK1 (human)): 53.7%
- residual activity (FGFR1 (human)): 41.3%
- residual activity (DAPK3 (human)): 89.1%
- residual activity (CAMK2G (human)): 101%
- residual activity (PIM3 (human)): 34.9%
- residual activity (MAP4K2 (human)): 10%
- residual activity [1]: 12.3%
- residual activity (ERBB2 (human)): 99.8%
- residual activity (DAPK1 (human)): 94.4%
- residual activity (VRK1 (human)): 69.1%
- residual activity (MAPKAPK3 (human)): 91%
- residual activity (CLK2 (human)): 9.96%
- residual activity [2]: 115%
- residual activity (HIPK3 (human)): 78.7%
- residual activity (CLK3 (human)): 65.5%
- residual activity (PDPK1 (human)): 76.7%
- residual activity (CSNK2A1 (human)): 48.2%
- residual activity (PRKCE (human)): 19.4%
- residual activity (CAMK1D (human)): 117%
- residual activity (MERTK (human)): 75.1%
- residual activity (GSK3A (human)): 2.04%
- residual activity (SRPK2 (human)): 97.8%
- residual activity (PASK (human)): 40.9%
- residual activity (STK3 (human)): 3.37%

Reference: the kinase profiling compilation of Christmann-Franck et al. (2016)
